Screens (PubChem BioAssay)
GIV Gai3 FP: inhibitors of GIV peptide binding to Galpha-i3, primary screen, biochemical, fluorescence polarization, FITC-GIV GBA peptide, rat Galphai3 | 90 min; stronger effect = lower value; scaled: aluminum fluoride 0%, vehicle 100% | AID 1224905, 2016 | 210,000 compounds, 0.42% hits | percent of control (FP), % (concentration not given with the values) | Guanine nucleotide-binding protein G(i) subunit alpha-3 (Rattus norvegicus), P08753;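 active = replicate mean at 85% of control or lower, very high polarization wells dropped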;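 note: wells of about 15 µL received 100 nL stock; the first replicate is given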
HCMV NEC inh: inhibitors of HCMV UL50-UL53 interaction, biochemical, HTRF; HCMV UL50-UL53 nuclear egress complex (human cytomegalovirus); normalized percent inhibition; inhibition, % (concentration not given with the values); actives 0.15% (n = 190,000); AID 1918969, 2023; in the data active = inhibition above about 27%, passing the limit was not always enough
Active calls of the source: *; nt = not tested or not shown. Compounds with a hit are over-represented: about 0.46% of the library has one in this group of screens.

By UniProt entry, the sequences of proteins in these tests, tags left out.
Guanine nucleotide-binding protein G(i) subunit alpha-3 (Rattus norvegicus), P08753, UniProt P08753, whole entry, looked up: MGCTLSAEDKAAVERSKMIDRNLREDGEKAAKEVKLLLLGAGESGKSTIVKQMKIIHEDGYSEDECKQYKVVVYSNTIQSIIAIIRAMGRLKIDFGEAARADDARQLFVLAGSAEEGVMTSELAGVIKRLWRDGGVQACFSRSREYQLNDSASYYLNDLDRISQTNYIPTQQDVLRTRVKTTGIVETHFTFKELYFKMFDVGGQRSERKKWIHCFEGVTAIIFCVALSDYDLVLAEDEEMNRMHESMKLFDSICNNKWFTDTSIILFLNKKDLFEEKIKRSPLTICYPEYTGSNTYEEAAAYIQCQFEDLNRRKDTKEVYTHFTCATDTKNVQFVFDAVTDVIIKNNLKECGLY

Sequence of screens – GIV Gai3 FP	HCMV NEC inh
CN(C)C1C(=O)C(C(N)=O)=C(O)C2(O)C(=O)C3=C(O)c4c(O)ccc(Cl)c4C(O)C3CC12 (stereo not given)
  nt	-54
C=C1c2cccc(O)c2C(O)=C2C(=O)C3(O)C(O)=C(C(N)=O)C(=O)C(N(C)C)C3C(O)C12 (stereo not given)
  103	104*
CCCCc1ncc(C=C(Cc2cccs2)C(=O)O)n1Cc1ccc(C(=O)O)cc1
  nt	-10
CCCOC(=O)c1c(C)oc2c1cc(NS(=O)(=O)c1ccc(OCC)cc1)c1ccccc12
  108	-43
CCOc1ccc(S(=O)(=O)Nc2cc(Cl)c(O)c3ccccc23)cc1
  nt	59*
COc1ccc(NC(=O)CN2N=NC3C(=O)N(c4ccc(C)cc4)C(=O)C32)c(OC)c1 (stereo not given)
  104	-3
C[n+]1cccc2ccc(O)cc21
  -7.5*	-53
Oc1ccc2ccccc2c1
  nt	-49
CCCCn1c(NC(=O)c2ccccc2)c(C#N)c2nc3ccccc3nc21
  nt	73
CCC(C)n1c(NC(=O)c2ccccc2)c(C#N)c2nc3ccccc3nc21 (stereo not given)
  nt	72*
O=C(Nc1ccc(F)cc1)c1cc(=O)[nH]c2ccccc12
  102	11
Cc1nn2c(NC(C)C)cc(C(C)(C)C)nc2c1-c1ccc(F)cc1
  95	-4
CCC(=O)Oc1ccc2cc(-c3nc4ccccc4n3C)c(=O)oc2c1
  nt	-19
CCN(CC)c1ccc2cc(-c3nc4ccccc4n3C)c(=O)oc2c1
  -24*	-15
CCN(CC)c1ccc2cc(-c3nc(-c4ccc(Cl)cc4Cl)cs3)c(=O)oc2c1
  -69*	nt
CCN(CC)c1ccc2cc(-c3nc4ccccc4s3)c(=O)oc2c1
  250	3
C[C@@]12CCC3[C@@H]4CCC[C@@](C)(C(=O)O)[C@H]4CC[C@]3(C/C1=N/O)C2 (stereo not given in full)
  108	-29
COc1ccc(NC(=O)c2nnc(COCC(=O)NCCc3c(C)noc3C)s2)cc1
  104	-34
CN(C)c1ccc(-c2nc(-c3cccc(I)c3)cc(=O)o2)cc1
  -18*	nt
O=c1cc(-c2ccccc2)nc(-c2ccccc2)o1
  101	-5
COC(=O)c1ccc(=O)c2nc3/c(=C/O)c(O)cc(=O)c3[nH]c12
  100	50*
COC(=O)c1ccc(N)cc1O
  100	-20
COc1ccc(C2(O)CN(c3ccc(Cl)cc3)C3=[N+]2CCCS3)cc1OC (stereo not given)
  102	nt
O=C1/C(=C/c2ccccc2)Nc2ccccc21
  -102*	-72
O=C1Nc2ccccc2/C1=C/c1ccccc1
  109	nt
CCCc1nc(-c2cc3cccc(C)c3nc2N2CCCCC2)no1
  106	-8
CCOC(=O)CN1C(=O)/C(=C/c2ccccc2)SC1=S
  nt	-34
COC(=O)CN1C(=O)S/C(=C\c2ccccc2)C1=O
  103	-48
COC(=O)CN1C(=O)C(=Cc2ccc(N(C)C)cc2)SC1=S
  -42*	nt
CCCN1C(=O)/C(=C/c2ccc(O)c(OC)c2)SC1=S
  -34*	-28

Looked up above:
CCCOC(=O)c1c(C)oc2c1cc(NS(=O)(=O)c1ccc(OCC)cc1)c1ccccc12 | HCMV NEC inh = -43
COc1ccc(NC(=O)CN2N=NC3C(=O)N(c4ccc(C)cc4)C(=O)C32)c(OC)c1 (stereo not given) | GIV Gai3 FP = 104

Returning to the listing with the three entries that preceded the break.
Sequence of screens – GIV Gai3 FP	HCMV NEC inh
COC(=O)CN1C(=O)S/C(=C\c2ccccc2)C1=O
  103	-48
COC(=O)CN1C(=O)C(=Cc2ccc(N(C)C)cc2)SC1=S
  -42*	nt
CCCN1C(=O)/C(=C/c2ccc(O)c(OC)c2)SC1=S
  -34*	-28
CCN1C(=O)/C(=C\c2ccc(OCC(N)=O)c(OC)c2)SC1=S
  nt	-14
COC(=O)CN1C(=O)/C(=C\c2ccc(O)cc2)SC1=S
  -42*	nt
Cc1c2cnn(CC(=O)NC3CCCc4ccccc43)c(=O)c2c(C)n1Cc1ccc(Cl)cc1 (stereo not given)
  100	nt
Cc1cccc(N2CCN(C(=O)CCC(=O)O)CC2)c1C
  101	nt
CNc1ccc2c(cc1=O)[C@@H](NC(C)=O)CCc1cc(OC)c(OC)c(OC)c1-2
  102	-56
CCOC(=O)C(=O)N1c2ccc(C)cc2-c2c(ssc2=S)C1(C)C
  119	nt
Cc1ccc2nc(NC(=O)CCc3nc4cc(S(=O)(=O)N5CCCCC5)ccc4n3C)sc2c1
  nt	-4
Cc1ccc(N2C(=O)NC(=O)/C(=C/c3cc(Br)c(O)cc3O)C2=O)cc1
  -71*	-44
Cc1ccc(N2C(=O)NC(=O)/C(=C\c3ccc(O)c(Br)c3)C2=O)cc1
  110	-3
c1ccc(Nc2nc(CN3CCN(c4ncccn4)CC3)cs2)cc1
  nt	-15
COc1ccc(C2CC(=O)C3=C(C2)Nc2ccccc2NC3c2cc([N+](=O)[O-])ccc2Cl)cc1 (stereo not given)
  106	41*
COc1ccc(C2CC(=O)C3=C(C2)Nc2ccccc2NC3c2ccccc2Br)cc1 (stereo not given)
  104	-14
O=C1N=C(c2ccccc2)S/C1=C\c1cccs1
  113	nt
Cc1c(/C=C2\SC(c3ccccc3)=NC2=O)c(=O)n(-c2ccccc2)n1C
  -4.0*	nt
O=S(=O)(c1cc(-c2nnc(-c3ccc(F)cc3)o2)ccc1Cl)N1CCCC1
  106	nt
CSc1nnc2c(n1)OC(c1ccc([N+](=O)[O-])cc1)Nc1ccccc1-2 (stereo not given)
  114	nt
CSc1nnc2c(n1)OC1(Nc3ccccc3-2)C(=O)Nc2ccc([N+](=O)[O-])cc21 (stereo not given)
  86	34*
